Laboratory results: BindingDB's records for doi:10.1021/jm960441m (Upjohn, 1997)

Biological target: T1, Dimer of Gag-Pol polyprotein [489-587] (Human immunodeficiency virus 1, UniProt P12497)
T1 construct: 489-587
Test: Protease Inhibition Assay
Conditions: pH 5; 22 °C
Text: HIV-1 protease was purified and refolded from E. coli inclusion bodies. […] In the presence of HIV-l protease, the substrate is rapidly cleaved into two parts. The biotinylated amino terminal fragment binds to the avidin beads while the FITC-containing carboxy1 terminal fragment is removed through the membrane. […] The bound fluorescence is obtained by processing on an IDEXX Screen Machine. Determination of Ki values with this assay requires analysis under conditions in which substrate concentration resides substantially below Km and the inhibitor concentrations greatly exceeds the Ki value and the enzyme concentration.

`O=c1oc2c(c(O)c1[C@H](c1cccc(NS(=O)(=O)c3ccccc3)c1)C1CC1)CCCCCC2` [N-{3-[(S)-cyclopropyl({4-hydroxy-2-oxo-2H,5H,6H,7H,8H,9H,10H-cycloocta[b]pyran-3-yl})methyl]phenyl}benzenesulfonamide] was tested, and the Ki was 3.2 nM.
